Amino acid sequences for entries named in this document (tags omitted). Residues count along the entry.
UniProt P06756, 31-1048, chain 1 of 2: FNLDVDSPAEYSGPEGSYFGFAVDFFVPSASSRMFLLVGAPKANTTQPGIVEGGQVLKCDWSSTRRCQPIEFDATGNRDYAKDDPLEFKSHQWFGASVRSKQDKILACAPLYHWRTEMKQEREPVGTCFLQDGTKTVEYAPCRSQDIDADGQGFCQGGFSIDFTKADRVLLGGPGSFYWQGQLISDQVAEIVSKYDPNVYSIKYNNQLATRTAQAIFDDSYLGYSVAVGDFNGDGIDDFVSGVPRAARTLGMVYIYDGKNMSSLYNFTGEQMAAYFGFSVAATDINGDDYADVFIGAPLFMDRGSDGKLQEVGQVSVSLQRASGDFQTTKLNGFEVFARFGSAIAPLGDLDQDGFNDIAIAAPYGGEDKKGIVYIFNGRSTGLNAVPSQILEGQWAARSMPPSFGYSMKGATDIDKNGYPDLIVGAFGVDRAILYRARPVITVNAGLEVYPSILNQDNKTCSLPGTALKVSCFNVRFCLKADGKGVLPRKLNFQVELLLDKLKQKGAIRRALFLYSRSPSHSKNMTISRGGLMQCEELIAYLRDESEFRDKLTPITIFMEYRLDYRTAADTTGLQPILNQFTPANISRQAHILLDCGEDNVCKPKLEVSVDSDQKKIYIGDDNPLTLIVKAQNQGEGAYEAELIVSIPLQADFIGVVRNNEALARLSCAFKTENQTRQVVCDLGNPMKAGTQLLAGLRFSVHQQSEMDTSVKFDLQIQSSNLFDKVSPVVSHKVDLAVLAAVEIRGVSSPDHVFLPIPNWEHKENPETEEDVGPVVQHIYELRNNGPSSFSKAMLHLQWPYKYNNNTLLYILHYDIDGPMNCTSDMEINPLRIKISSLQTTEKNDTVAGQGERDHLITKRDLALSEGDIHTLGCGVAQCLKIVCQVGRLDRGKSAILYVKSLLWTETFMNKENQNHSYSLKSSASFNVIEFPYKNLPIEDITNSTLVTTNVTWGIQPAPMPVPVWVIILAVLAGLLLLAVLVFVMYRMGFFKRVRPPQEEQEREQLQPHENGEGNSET
αvβ6 integrin, UniProt P18564, 22-788, chain 2 of 2: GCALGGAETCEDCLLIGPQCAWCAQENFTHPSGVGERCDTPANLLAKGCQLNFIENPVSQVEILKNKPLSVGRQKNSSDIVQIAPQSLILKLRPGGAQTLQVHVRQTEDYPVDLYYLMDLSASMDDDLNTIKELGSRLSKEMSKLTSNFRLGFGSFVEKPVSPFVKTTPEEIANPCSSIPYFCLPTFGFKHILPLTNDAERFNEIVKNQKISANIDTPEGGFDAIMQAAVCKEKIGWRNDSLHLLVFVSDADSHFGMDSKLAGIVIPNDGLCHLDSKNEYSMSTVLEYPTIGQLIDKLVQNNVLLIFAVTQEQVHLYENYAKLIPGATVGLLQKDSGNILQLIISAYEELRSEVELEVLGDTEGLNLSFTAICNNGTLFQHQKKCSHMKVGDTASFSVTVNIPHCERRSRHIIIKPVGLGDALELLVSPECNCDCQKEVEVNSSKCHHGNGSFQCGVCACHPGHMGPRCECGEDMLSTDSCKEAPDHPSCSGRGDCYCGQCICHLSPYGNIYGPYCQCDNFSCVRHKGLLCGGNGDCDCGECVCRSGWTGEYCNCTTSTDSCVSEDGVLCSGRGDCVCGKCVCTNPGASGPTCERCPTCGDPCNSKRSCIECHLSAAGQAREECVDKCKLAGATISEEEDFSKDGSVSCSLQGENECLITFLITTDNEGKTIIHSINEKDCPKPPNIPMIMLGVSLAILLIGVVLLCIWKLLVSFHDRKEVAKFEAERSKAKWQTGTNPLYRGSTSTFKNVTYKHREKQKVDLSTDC

According to patent US20220024975A1 (ARROWHEAD PHARMACEUTICALS, published 2022):

Columns and labels:
[1] = target: αvβ6 integrin (human) (UniProt P06756); assay: flow cytometry, Cy5-polymer conjugate 5 µg/ml, H2009 cells
[2] = target: T1, αvβ6 integrin (human, UniProt P06756 31-1048; P18564 22-788); assay: as above
T1 construct: whole, on cells; target is the endogenous integrin on αvβ6 positive-control cell lines; also called Integrin alpha-v beta-6
Excerpt: B. αvβ6 ligand binding (flow cytometric analyses). To assess for specificity of binding of the αvβ6 ligands to the αvβ6 integrin, each αvβ6 ligand or negative control peptide was conjugated to a Cy5-labeled polymer (as described above) and evaluated for binding to cells. […] H2009 (human lung epithelial adenocarcinoma) and CAPAN-2 (human pancreas adenocarcinoma) cells served as the αvβ6 positive-control cell lines. Cells were detached from culturing flasks with Accutase, washed in PBS, and seeded into 5 ml polystyrene round-bottom tubes at 200,000 cells in 200 μl complete media (culturing media with supplements and fetal calf serum). αvβ6 ligand-polymer conjugates or no-ligand-polymer conjugates were added at 5 μg/ml (polymer-Cy5 concentration) to cells, mixed and incubated at 37° C. for 3 h. […] Samples were analyzed on a BD Biosciences Canto II cytometer equipped with a violet (405 nm), blue (488 nm) and red (633 nm) lasers.
Viable cells were initially gated as the SYTOX blue negative population on the C detector with the violet laser. These viable cells were then assessed for conjugate binding/uptake with the red laser as the Mean Fluorescence Intensity (MFI) of the Cy5 fluorophore. […] A specific MFI Ratio (sMFIr) for each αvβ6 ligand was determined by the formula: […]

| MFI (specific MFI ratio, sample/no-ligand) [2] [ratio] | Molecule | MFI (specific MFI ratio, sample/no-ligand) [1] |
| --- | --- | --- |
| – | Ac-…ibL (peptide) | 3.9 |
| – | Ac-…buL (peptide) | 4.26 |
| 4.6 | RGDLATLR | – |
